# Measured values from paper PMC5036131, “Fragment-based discovery of a new family of non-peptidic small-molecule cyclophilin inhibitors with potent antiviral activities” (Nature Communications, 2016).
# Protein sequences, listed by entry. Tags and fused reporters are not part of them. Residues count along the entry.
# UniProt P23284, 34-216 limits assumed: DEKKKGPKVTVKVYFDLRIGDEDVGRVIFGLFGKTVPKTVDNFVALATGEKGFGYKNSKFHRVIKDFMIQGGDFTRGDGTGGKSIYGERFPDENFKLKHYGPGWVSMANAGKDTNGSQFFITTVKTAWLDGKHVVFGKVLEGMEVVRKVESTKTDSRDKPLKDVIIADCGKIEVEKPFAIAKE
# UniProt P30405, 44-207 K175I limits assumed: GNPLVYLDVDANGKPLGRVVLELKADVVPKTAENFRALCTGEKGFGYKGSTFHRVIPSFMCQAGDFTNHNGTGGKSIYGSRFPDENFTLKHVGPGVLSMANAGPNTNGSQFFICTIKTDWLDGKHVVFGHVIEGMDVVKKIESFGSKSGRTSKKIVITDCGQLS
# UniProt P11712, whole entry: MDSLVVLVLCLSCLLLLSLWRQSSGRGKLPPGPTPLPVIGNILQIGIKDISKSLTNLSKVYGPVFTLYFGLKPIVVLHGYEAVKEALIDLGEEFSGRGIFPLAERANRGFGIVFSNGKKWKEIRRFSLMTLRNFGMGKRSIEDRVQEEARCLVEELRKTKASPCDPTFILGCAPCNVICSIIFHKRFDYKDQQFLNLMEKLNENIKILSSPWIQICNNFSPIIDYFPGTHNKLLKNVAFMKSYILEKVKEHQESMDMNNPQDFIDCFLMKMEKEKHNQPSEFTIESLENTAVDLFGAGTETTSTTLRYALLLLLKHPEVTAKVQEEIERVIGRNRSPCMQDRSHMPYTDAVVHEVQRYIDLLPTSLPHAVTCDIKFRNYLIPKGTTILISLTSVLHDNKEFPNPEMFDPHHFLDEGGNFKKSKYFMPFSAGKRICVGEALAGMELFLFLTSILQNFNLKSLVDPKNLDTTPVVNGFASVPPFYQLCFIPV
# UniProt P10632, whole entry: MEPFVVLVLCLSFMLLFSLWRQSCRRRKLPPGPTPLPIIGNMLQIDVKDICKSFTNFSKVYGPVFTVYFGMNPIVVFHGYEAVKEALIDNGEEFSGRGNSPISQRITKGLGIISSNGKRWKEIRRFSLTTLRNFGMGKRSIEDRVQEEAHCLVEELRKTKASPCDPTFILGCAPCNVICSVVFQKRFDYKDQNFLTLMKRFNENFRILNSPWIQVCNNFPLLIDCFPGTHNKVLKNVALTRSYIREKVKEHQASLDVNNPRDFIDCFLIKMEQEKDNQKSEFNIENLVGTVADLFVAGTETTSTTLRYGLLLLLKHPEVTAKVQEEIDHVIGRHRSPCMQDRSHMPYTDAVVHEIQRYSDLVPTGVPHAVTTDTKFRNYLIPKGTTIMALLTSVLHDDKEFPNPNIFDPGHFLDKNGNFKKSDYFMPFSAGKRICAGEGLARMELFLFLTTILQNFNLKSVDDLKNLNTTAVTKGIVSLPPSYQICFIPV
# UniProt P20813, whole entry: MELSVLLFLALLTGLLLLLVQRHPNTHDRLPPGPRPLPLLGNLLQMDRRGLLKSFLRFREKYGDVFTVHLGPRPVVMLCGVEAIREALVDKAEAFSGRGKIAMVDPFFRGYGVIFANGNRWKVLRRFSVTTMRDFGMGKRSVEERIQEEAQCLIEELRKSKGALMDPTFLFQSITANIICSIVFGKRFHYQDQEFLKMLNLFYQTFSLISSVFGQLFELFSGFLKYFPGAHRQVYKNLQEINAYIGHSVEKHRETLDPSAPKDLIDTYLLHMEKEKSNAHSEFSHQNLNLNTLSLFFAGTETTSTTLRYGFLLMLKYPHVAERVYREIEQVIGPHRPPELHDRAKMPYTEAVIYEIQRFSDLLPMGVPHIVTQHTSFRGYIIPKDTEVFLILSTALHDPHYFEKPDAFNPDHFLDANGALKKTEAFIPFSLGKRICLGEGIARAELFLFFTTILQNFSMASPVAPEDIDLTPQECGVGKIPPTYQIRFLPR
# UniProt P08684, whole entry: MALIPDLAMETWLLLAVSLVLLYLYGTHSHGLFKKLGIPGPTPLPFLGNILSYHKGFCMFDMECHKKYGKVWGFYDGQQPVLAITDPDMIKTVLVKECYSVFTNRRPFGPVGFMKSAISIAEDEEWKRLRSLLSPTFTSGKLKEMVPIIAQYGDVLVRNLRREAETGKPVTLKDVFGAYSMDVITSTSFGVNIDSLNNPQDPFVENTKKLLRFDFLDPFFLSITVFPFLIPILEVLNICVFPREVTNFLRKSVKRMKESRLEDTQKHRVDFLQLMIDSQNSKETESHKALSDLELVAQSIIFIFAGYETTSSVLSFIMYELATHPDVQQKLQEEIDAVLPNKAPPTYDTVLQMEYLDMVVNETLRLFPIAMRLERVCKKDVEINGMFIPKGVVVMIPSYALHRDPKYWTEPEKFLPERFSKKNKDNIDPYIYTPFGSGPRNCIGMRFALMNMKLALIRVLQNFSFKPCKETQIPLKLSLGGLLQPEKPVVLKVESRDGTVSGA
# UniProt P08684, 2-503 limits assumed: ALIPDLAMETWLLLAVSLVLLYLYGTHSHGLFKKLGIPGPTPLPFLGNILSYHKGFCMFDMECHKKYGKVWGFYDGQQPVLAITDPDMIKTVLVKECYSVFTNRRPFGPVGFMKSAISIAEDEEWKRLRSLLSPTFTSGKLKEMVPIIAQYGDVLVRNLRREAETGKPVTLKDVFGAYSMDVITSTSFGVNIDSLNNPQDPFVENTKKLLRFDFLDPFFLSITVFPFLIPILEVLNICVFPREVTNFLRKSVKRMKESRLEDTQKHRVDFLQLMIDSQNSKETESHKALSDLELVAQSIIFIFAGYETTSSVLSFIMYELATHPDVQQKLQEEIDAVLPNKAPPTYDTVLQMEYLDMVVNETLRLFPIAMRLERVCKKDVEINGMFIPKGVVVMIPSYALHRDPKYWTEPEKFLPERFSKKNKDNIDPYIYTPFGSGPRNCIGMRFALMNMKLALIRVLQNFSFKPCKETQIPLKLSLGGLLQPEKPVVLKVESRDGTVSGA
# UniProt P10635, whole entry: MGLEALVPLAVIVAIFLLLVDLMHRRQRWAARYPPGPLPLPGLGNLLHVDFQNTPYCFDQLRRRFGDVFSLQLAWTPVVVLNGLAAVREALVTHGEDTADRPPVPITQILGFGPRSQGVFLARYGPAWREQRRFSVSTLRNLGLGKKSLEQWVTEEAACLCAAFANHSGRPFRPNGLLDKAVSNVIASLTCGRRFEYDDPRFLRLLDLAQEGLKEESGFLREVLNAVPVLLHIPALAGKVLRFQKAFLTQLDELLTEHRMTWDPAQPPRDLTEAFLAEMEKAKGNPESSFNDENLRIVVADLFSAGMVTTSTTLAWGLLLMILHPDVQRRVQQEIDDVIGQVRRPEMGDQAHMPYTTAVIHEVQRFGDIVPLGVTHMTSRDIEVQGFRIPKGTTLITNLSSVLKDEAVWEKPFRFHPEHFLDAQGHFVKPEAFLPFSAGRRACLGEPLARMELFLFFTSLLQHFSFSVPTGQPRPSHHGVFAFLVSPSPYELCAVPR
# UniProt P05177, whole entry: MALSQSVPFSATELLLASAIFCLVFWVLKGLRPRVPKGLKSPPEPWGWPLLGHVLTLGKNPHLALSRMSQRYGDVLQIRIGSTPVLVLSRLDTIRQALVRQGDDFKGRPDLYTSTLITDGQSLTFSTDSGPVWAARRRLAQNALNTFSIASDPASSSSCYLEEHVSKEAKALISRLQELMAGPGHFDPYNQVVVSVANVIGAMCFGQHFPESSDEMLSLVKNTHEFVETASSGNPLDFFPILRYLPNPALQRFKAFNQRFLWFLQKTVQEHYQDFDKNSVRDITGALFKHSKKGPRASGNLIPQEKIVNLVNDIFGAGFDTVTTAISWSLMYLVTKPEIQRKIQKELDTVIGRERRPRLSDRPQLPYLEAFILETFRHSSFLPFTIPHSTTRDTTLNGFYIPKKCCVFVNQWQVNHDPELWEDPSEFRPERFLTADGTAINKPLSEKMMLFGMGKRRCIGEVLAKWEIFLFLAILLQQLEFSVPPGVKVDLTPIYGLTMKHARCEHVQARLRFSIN
# UniProt P33261, whole entry: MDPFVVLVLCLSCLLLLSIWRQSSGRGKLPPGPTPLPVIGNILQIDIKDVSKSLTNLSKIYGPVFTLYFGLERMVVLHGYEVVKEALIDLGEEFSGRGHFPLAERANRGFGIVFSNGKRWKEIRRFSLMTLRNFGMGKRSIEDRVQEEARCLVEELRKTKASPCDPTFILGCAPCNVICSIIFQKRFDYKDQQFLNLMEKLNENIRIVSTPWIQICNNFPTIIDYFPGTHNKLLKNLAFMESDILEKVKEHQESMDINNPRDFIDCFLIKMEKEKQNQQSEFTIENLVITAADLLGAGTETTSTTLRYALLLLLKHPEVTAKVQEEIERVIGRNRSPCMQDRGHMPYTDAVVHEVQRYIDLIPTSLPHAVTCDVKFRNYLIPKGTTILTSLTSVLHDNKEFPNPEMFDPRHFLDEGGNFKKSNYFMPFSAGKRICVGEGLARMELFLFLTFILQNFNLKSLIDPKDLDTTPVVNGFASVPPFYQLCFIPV
# Key:
# CypB = CypB (Homo sapiens, UniProt P23284); details: read-out: CypB IC50; PPIase enzyme assay, 20 °C, mean±s.d.
# CypD = CypD (Homo sapiens, UniProt P30405, K175I); experiment: PPIase enzyme assay (chymotrypsin-coupled), CypD
# Caco-2 cells = experiment: Caco-2 cell permeability; details: Caco-2 monolayers, 10 μM
# MRC5 cells = experiment: Cellular toxicity in MRC5 cells; format: cell-based; details: read-out: MRC5 cells CC50
# CYP2C9 [1] = biological target: T1, CYP2C9 (Homo sapiens, UniProt P11712); experiment: Cytochrome P450 enzyme inhibition assay, CYP2C9; details: human hepatic microsomal fractions, up to 25 μM
# CYP2C8 [2] = biological target: T2, CYP2C8 (Homo sapiens, UniProt P10632); experiment: Metabolism by recombinant human cytochrome P450, CYP2C8; details: recombinant enzyme
# [3] = Cell culture medium binding, equilibrium dialysis; details: 2 μM, 37 °C, 3 h dialysis
# [4] = Human plasma protein binding, equilibrium dialysis; details: 2 μM, 37 °C, 3 h dialysis
# Kinetic solubility = details: target concentration 100 μM, 24 h; for Solubility HCl (pH 1.0): 0.1 N HCl pH 1.0
# CYP2B6 [5] = biological target: T3, CYP2B6 (Homo sapiens, UniProt P20813); experiment: Cytochrome P450 enzyme inhibition assay, CYP2B6; details: human hepatic microsomal fractions, up to 25 μM
# CYP3A4 [6] = biological target: T4, CYP3A4 (Homo sapiens, UniProt P08684); experiment: Metabolism by recombinant human cytochrome P450, CYP3A4; format: in vitro ADME; details: recombinant enzyme
# Protocol: (§1) […] of compound was incubated with individual bacterially expressed recombinant human cytochromes P450 co-expressed with human NADPH cytochrome P450 reductase. The reduction in substrate concentration was monitored over 45 min using specific LC-MS/MS assays and the in vitro half-life calculated in the same manner as that described for hepatic microsomal stability. Enzyme-selective positive control substrates were tested in parallel.
# Chemical stability, 24 h = format: physicochemical; details: 37 °C, remaining
# CYP2D6 [7] = biological target: T5, CYP2D6 (Homo sapiens, UniProt P10635); experiment: Metabolism by recombinant human cytochrome P450, CYP2D6; details: recombinant enzyme
# CYP3A4 [8] = biological target: T4, CYP3A4; experiment: Cytochrome P450 enzyme inhibition assay, CYP3A4; details: human hepatic microsomal fractions, up to 25 μM
# [9] = LogD determination by reverse-phase HPLC; details: octanol/water, pH 7.4
# MT4 cells = experiment: Cytotoxicity in uninfected MT4 cells; details: read-out: MT4 cells CC50
# CYP2C8 [10] = biological target: T2, CYP2C8; experiment: Cytochrome P450 enzyme inhibition assay, CYP2C8; details: human hepatic microsomal fractions, up to 25 μM
# Huh7 cells = experiment: Cellular toxicity in Huh7 replicon cells; format: cell-based; details: read-out: HCV genotype 1b replicon CC50
# CYP1A2 [11] = biological target: T6, CYP1A2 (Homo sapiens, UniProt P05177); experiment: Cytochrome P450 enzyme inhibition assay, CYP1A2; details: human hepatic microsomal fractions, up to 25 μM
# [12] = Stability with hepatic microsomal fractions; details: human microsomes 0.5 mg protein/ml, NADPH, 3 μM
# CYP2C19 [13] = biological target: T7, CYP2C19 (Homo sapiens, UniProt P33261); experiment: Cytochrome P450 enzyme inhibition assay, CYP2C19; details: human hepatic microsomal fractions, up to 25 μM
# CYP2D6 [14] = biological target: T5, CYP2D6; experiment: Cytochrome P450 enzyme inhibition assay, CYP2D6; details: human hepatic microsomal fractions, up to 25 μM
# CYP1A2 [15] = biological target: T6, CYP1A2; experiment: Metabolism by recombinant human cytochrome P450, CYP1A2; format: in vitro ADME; details: recombinant enzyme
# Protocol: as §1
# CYP2B6 [16] = biological target: T3, CYP2B6; experiment: Metabolism by recombinant human cytochrome P450, CYP2B6; format: in vitro ADME; details: recombinant enzyme
# Protocol: as §1
# CYP2C9 [17] = biological target: T1, CYP2C9; experiment: Metabolism by recombinant human cytochrome P450, CYP2C9; details: recombinant enzyme
# CYP2C19 [18] = biological target: T7, CYP2C19; experiment: Metabolism by recombinant human cytochrome P450, CYP2C19; format: in vitro ADME; details: recombinant enzyme
# Protocol: as §1
structure (smiles),measurement,setting,value
"O=C(NC(=O)c1c(F)cccc1Cl)NC1c2ccccc2-c2ccccc21 [TMN-355, reference compound]",IC50,CypB,> 100 µM
CC(=O)c1cccc(N)c1,% CypD inhibition (%I) at 1 mM,CypD,17%
O=C(NC(=O)c1c(Cl)cccc1Cl)NC1c2ccccc2-c2ccccc21,IC50,CypB,> 100 µM
CSc1ccccc1C1CCCN1C(=O)C(CC(C)C)NC(=O)NCc1ccc(N)cc1 (centres unmarked),Apparent permeability Forward,Caco-2 cells,14 ×10⁻⁶ cm/s
same,Apparent permeability Forward,Caco-2 cells; listed as compound 29,high
same,Apparent permeability Reverse,Caco-2 cells; reverse,45.6 ×10⁻⁶ cm/s
same,CC50,MRC5 cells,> 100 µM
same,"Inhibition of cytochrome P450 activity, IC50 CYP2C9",CYP2C9 [1],Neither compound 29 nor compound 30 significantly inhibited
same,IC50,"CYP2C9 [1]; read-out: Inhibition of cytochrome P450 activity, IC50 CYP2C9",> 25 µM
same,Rate of metabolism by human cytochrome P450 CYP2C8,CYP2C8 [2],0.43 pmol/pmol P450/min
same,Cell culture medium (CCM) binding Unbound,[3],76.8%
same,Human plasma binding Bound,[4],85.0%
same,Human plasma binding Unbound,[4],15.0%
same,Solubility HCl (pH 1.0),Kinetic solubility,> 100 µM
same,Solubility HCl (pH 1.0),Kinetic solubility; listed as compound 29,very soluble
same,Solubility PBS (pH 7.4),Kinetic solubility,> 100 µM
same,Solubility PBS (pH 7.4),Kinetic solubility; listed as compound 29,very soluble
same,"Inhibition of cytochrome P450 activity, IC50 CYP2B6",CYP2B6 [5],Neither compound 29 nor compound 30 significantly inhibited
same,IC50,"CYP2B6 [5]; read-out: Inhibition of cytochrome P450 activity, IC50 CYP2B6",> 25 µM
same,Rate of metabolism by human cytochrome P450 CYP3A4,CYP3A4 [6],< 0.47 pmol/pmol P450/min
same,Rate of metabolism by human cytochrome P450 CYP3A4,CYP3A4 [6]; listed as compound 29,but not compound 29
same,24-hour stability HCl (pH 1.0),"Chemical stability, 24 h",98%
same,24-hour stability PBS (pH 7.4),"Chemical stability, 24 h",100%
same,24-hour stability PBS (pH 7.4),"Chemical stability, 24 h; listed as compound 29",not degraded
same,Rate of metabolism by human cytochrome P450 CYD2D6,CYP2D6 [7],1.43 pmol/pmol P450/min
same,"Inhibition of cytochrome P450 activity, IC50 CYP3A4",CYP3A4 [8],potent inhibitors
same,IC50,"CYP3A4 [8]; read-out: Inhibition of cytochrome P450 activity, IC50 CYP3A4",0.97 µM
same,LogD,[9],2.5
same,CC50,MT4 cells,40 µM
same,"Inhibition of cytochrome P450 activity, IC50 CYP2C8",CYP2C8 [10],moderate inhibitors
same,IC50,"CYP2C8 [10]; read-out: Inhibition of cytochrome P450 activity, IC50 CYP2C8",9.7 µM
same,CC50,Huh7 cells,> 100 µM
same,"Inhibition of cytochrome P450 activity, IC50 CYP1A2",CYP1A2 [11],Neither compound 29 nor compound 30 significantly inhibited
same,IC50,"CYP1A2 [11]; read-out: Inhibition of cytochrome P450 activity, IC50 CYP1A2",> 25 µM
same,"Hepatic microsomal stability, T1/2",[12],21.6 min
same,"Inhibition of cytochrome P450 activity, IC50 CYP2C19",CYP2C19 [13],Neither compound 29 nor compound 30 significantly inhibited
same,IC50,"CYP2C19 [13]; read-out: Inhibition of cytochrome P450 activity, IC50 CYP2C19",> 25 µM
same,"Inhibition of cytochrome P450 activity, IC50 CYD2D6",CYP2D6 [14],Neither compound 29 nor compound 30 significantly inhibited
same,IC50,"CYP2D6 [14]; read-out: Inhibition of cytochrome P450 activity, IC50 CYD2D6",> 25 µM
same,Rate of metabolism by human cytochrome P450 CYP1A2,CYP1A2 [15],< 0.12 pmol/pmol P450/min
same,Rate of metabolism by human cytochrome P450 CYP1A2,CYP1A2 [15]; listed as compound 29,Neither compound 29 nor compound 30 was metabolized
same,Rate of metabolism by human cytochrome P450 CYP2B6,CYP2B6 [16],< 0.12 pmol/pmol P450/min
same,Rate of metabolism by human cytochrome P450 CYP2B6,CYP2B6 [16]; listed as compound 29,Neither compound 29 nor compound 30 was metabolized
same,Rate of metabolism by human cytochrome P450 CYP2C9,CYP2C9 [17],1.36 pmol/pmol P450/min
same,IC50,CypB,0.5 µM
same,Rate of metabolism by human cytochrome P450 CYP2C19,CYP2C19 [18],9.96 pmol/pmol P450/min
same,Rate of metabolism by human cytochrome P450 CYP2C19,CYP2C19 [18]; listed as compound 29,metabolized at the highest rate
